Laboratory results as given in patent US9815791B2, “Alkylpyrazolyl guanidine F1F0-ATPase inhibitors and therapeutic uses thereof” (Lycera Corporation, priority 2013, dated 2017).

Legend:
Ramos cells = experiment: Cytotoxicity in Ramos cells; conditions: read-out: Ramos Cell EC50
Procedure: (§1) Exemplary compounds described in above Examples were tested for activity against F1F0-ATPase by measuring the ability of the compounds to inhibit ATP synthesis. In addition, the compounds were assessed for cytotoxicity in Ramos cells. Inhibition of F1F0-ATPase activity in synthesizing ATP and cytotoxicity in Ramos cells were measured according to the procedures described in K. M. Johnson et al. Chemistry & Biology 2005, 12, 485-496.

F1F0-ATPase = F1F0-ATPase (Bos taurus, UniProt P13621); experiment: Inhibition of F1F0-ATPase activity in synthesizing ATP; conditions: read-out: ATP Syn IC50; inhibition of ATP synthesis
Procedure: as §1

Compound	EC50 (Ramos cells)	IC50 (F1F0-ATPase)
Cc1c(NC(=NC(=O)c2ccc(C(F)(F)F)cc2)Nc2cc(F)cc(Cl)c2)n[nH]c1C(F)(F)F	< 10 µM	< 10 µM
Cc1c(NC(=NC(=O)c2ccc(F)c(F)c2)Nc2cccc(Cl)c2)n[nH]c1C(F)(F)F	< 10 µM	< 10 µM
COc1ccc(C(=O)N=C(Nc2cccc(C(F)(F)F)c2)Nc2n[nH]c(C(F)(F)F)c2C)cc1	< 10 µM	< 10 µM
Cc1c(NC(=NC(=O)c2ccc(F)c(F)c2)Nc2cccc(C(F)(F)F)c2)n[nH]c1C(F)(F)F	< 10 µM	< 10 µM
Cc1c(NC(=NC(=O)c2cccc(Cl)c2)Nc2cccc(C(F)(F)F)c2)n[nH]c1C(F)(F)F	< 10 µM	< 10 µM
Cc1c(NC(=NC(=O)c2ccc(Cl)c(F)c2)Nc2cccc(C(F)(F)F)c2)n[nH]c1C(F)(F)F	< 10 µM	< 10 µM
Cc1c(NC(=NC(=O)c2cccc(Cl)c2)Nc2ccc(Cl)cc2Cl)n[nH]c1C(F)(F)F	< 10 µM	< 10 µM
